The text below walks through data of PubChem BioAssay AID504651 (National Center for Advancing Translational Sciences (NCATS), 2011).

The chains behind the UniProt entries cited, without tags or fusion partners.
UniProt P21728, whole entry, looked up: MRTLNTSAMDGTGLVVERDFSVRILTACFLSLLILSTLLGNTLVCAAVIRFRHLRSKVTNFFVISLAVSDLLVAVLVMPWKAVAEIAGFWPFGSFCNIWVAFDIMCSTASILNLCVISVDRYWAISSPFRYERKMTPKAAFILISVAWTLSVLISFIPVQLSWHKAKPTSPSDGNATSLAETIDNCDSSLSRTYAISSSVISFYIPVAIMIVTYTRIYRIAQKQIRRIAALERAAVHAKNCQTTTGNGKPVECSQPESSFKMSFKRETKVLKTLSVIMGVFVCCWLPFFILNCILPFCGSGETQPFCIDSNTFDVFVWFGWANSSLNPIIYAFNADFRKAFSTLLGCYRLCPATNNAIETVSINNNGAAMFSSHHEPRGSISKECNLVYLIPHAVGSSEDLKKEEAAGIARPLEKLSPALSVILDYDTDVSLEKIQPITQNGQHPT

Structures are written as SMILES. The list shows a part of the results, in another mix than the full data. The source made the active and inactive calls. No stated cut-off is given here; in the data, active means potentiation above about 30%; inactive means the rest.

This test addresses D(1A) dopamine receptor (Homo sapiens) (UniProt P21728). Put plainly: Potentiators of Human D1 Dopamine Receptor: qHTS. Further: 0% is about no effect. The conditions noted are these: HEK293 TREx D1 cells, calcium flux, dopamine EC20 potentiation; at 10 µM; active compounds read high. An excerpt: Dopamine receptors (DARs) are involved in the etiology and/or therapy of a number of neuropsychiatric and endocrine disorders. For instance, all receptor-based antiparkinsonian drugs work via stimulating the D1 DAR subtype whereas all FDA-approved antipsychotic agents are antagonists of this receptor. […] There are three different types of allosteric modulators that we are seeking, two of which will stimulate or augment receptor signaling, allosteric agonists and potentiators, while the third, allosteric antagonists, will attenuate receptor signaling. The present primary screening assay measures compound potentiation of an EC20 dopamine response by tracking calcium flux in a […], inducible Hek293 Trex D1 cell line.
NIH Chemical Genomics Center [NCGC]
NIH Molecular Libraries Probe Centers Network [MLPCN]
Assay Submitter (PI): David Sibley
Freshly passaged cells are plated in 1536 well black, clear bottom plates at a density of 4000 cells/well in 3 ul of complete media containing 1x tetracycline inducer. After an overnight incubation at 30 C in 5% CO2, cells are loaded with 2 ul of the no wash Calcium Assay Kit (ABD Bioquest) and incubated at room temperature for 30 to 90 minutes. A 10 cycle (1 second/cycle) baseline measurement is taken and then the FDSS online 1536 pintool delivers 23 nl of compound library (as well as dopamine controls) to the plate. The plate is measured for kinetically at 1 cycle/sec for 180 seconds and is considered to be the agonist portion of the assay (eg, compounds which activate a positive calcium response during this portion are flagged as potential agonists). Following the 180 second read, 1 ul of an EC20 of dopamine is delivered by an onboard pipette head. Measurements are taken kinetically for an additional 180 seconds.
For the compound `O=[N+]([O-])c1cc([N+](=O)[O-])c(-c2ccn[nH]2)s1`, the potentiation was inactive: -2.25%.

Turning to `CC(C)NC(=O)NP(=O)(Oc1ccccc1)Oc1ccccc1`, the potentiation was inactive: -0.422%.

For the compound `CCN(CC)C(=S)SC(NC=O)C(Cl)(Cl)Cl` (stereo unspecified), the potentiation is inactive: -5.95%.

With `CS(=O)(=O)c1cc([N+](=O)[O-])c2no[n+]([O-])c2c1`, the potentiation was inactive: 0.75%.

With `O=P(Nc1nccs1)(Oc1ccccc1)Oc1ccccc1`, the potentiation is inactive: -2.35%.

On to `O=P(Nc1nccs1)(c1ccccc1)c1nc2ccccc2s1` (stereo unspecified), for which the potentiation was inactive: -0.65%.

As to `CCOP1(=S)c2c(C)nn(CCC#N)c2N=C(c2ccccc2F)N1C` (stereo unspecified), the potentiation is inactive: 2.95%.

Turning to `O=C(O)COc1ccc([As](=O)(O)O)cc1[N+](=O)[O-]`, the potentiation is inactive: -4.5%.

In the case of `Nc1ccccc1[As](=O)(O)c1ccccc1`, the potentiation was inactive: -4.3%.

Turning to `NC(=O)Nc1ccc([As](=O)(O)O)cc1`, the potentiation was inactive: -1%.

Turning to `O=[N+]([O-])c1ccc2c(c1)nnn2O`, the potentiation was inactive: -2.5%.

For the compound `CN(C(=O)Cc1ccccc1)[C@@H]1CC[C@]2(CCCO2)C[C@H]1N1CCCC1`, the potentiation was inactive: -7%.

As to `CCOP1(=S)c2c(C)nn(CCC#N)c2N=C(c2ccc(F)cc2)N1C` (stereo unspecified), the potentiation was inactive: -9.15%.

Take `N#CCCN(C(=O)COC(=O)C(O)(c1ccccc1)c1ccccc1)c1ccc(F)cc1`: the potentiation is inactive: -3.1%.

For `CS(=O)(=O)c1ccc(Cl)c(NC(=O)COC(=O)C(O)(c2ccccc2)c2ccccc2)c1`, the potentiation is inactive: -4.11%.

On to `O=[As](O)(O)c1cccnc1`, for which the potentiation was inactive: 6.35%.

`COc1cc(C(=O)NCC2(N3CCOCC3)CCCCC2)cc(Cl)c1OC(C)C`: the potentiation was inactive: 0%.

As for `O=C(OC1CN2CCC1CC2)c1ccc(Cl)cc1` (stereo unspecified), the potentiation is inactive: -1.35%.

`Cc1cccc(OCC(=O)OC2CN3CCC2CC3)c1` (stereo unspecified): the potentiation was inactive: -7.8%.

On to `O=[As](O)(c1cccc(O)c1)c1cccc(O)c1`, for which the potentiation is inactive: -1%.

`CCCOP(=S)(Nc1nc(N)cc(=O)[nH]1)OCCC`: the potentiation is inactive: -0.55%.

Regarding `Cc1ccc(NCCc2c([N+](=O)[O-])cc([N+](=O)[O-])cc2[N+](=O)[O-])cc1`, the potentiation is inactive: 6.7%.

For the compound `Nc1cccc2c([As](=O)(O)O)cccc12`, the potentiation is inactive: -6.6%.

As to `CCOP(=O)(Nc1cccc2ccccc12)OCC`, the potentiation was inactive: -2.8%.

As for `COc1cc(C2NCCC3(OCCO3)C2(C)C)cc(OC)c1OC` (stereo unspecified), the potentiation was inactive: -3.45%.

As to `CCOP(=O)(Nc1ccc(C)cn1)OCC`, the potentiation was inactive: -8.25%.

For `CCOP(=O)(NC(=NC(C)c1ccccc1)NC(C)c1ccccc1)OCC` (stereo unspecified), the potentiation is inactive: -1.85%.

As for `CCC1=CC2Cc3nc4ccc(Cl)cc4c(N)c3C(C1)C2` (stereo unspecified), the potentiation is inactive: 0.85%.

Regarding `O=P1(Nc2ccccn2)COc2ccccc2OC1`, the potentiation was inactive: -6.9%.

On to `CC(C)(C)C(=O)NC(Sc1ncccn1)C(Cl)(Cl)Cl` (stereo unspecified), for which the potentiation was inactive: -1.4%.

For the compound `Clc1n[nH]nc1-c1nn[nH][15n]1`, the potentiation is inactive: -3.9%.

`COc1ccccc1CNC(=O)COC(=O)C(O)(c1ccccc1)c1ccccc1`: the potentiation is inactive: 7.95%.

On to `O=[As](O)(c1ccccc1Br)c1ccccc1Br`, for which the potentiation is inactive: 6.4%.

With `CN(C(=O)Cc1ccc(Cl)c(Cl)c1)[C@@H]1CCCC[C@H]1N1CCCC1`, the potentiation is inactive: -2.75%.

For the compound `CC(C)/C=N\N=C(\N)N[N+](=O)[O-]`, the potentiation is inactive: -2.6%.

Turning to `Cc1ccc(C(=O)OC2CN3CCC2CC3)cc1` (stereo unspecified), the potentiation is inactive: 9.05%.

As for `CC1CCC(C(C)C)C(OP(=O)(Nc2ccccn2)c2ccccc2)C1` (stereo unspecified), the potentiation was inactive: -0.3%.

On to `Cc1nn(-c2ccccc2)c2c1P(=O)(N1CCOCC1)N(C)C(c1ccccc1)=N2` (stereo unspecified), for which the potentiation was inactive: 3.95%.

Consider `O=C(/C=C/c1ccccc1)OC1CN2CCC1CC2` (stereo unspecified), for which the potentiation was inactive: -4.5%.

As to `CN(C)C1(CNC(=O)c2ccc(S(C)(=O)=O)cc2)CCCCC1`, the potentiation was inactive: -1.65%.

`O=P1(Nc2ncccn2)COc2ccccc2OC1`: the potentiation was inactive: -4.1%.

`Cc1ccc(OCC(=O)OC2CN3CCC2CC3)cc1` (stereo unspecified): the potentiation is inactive: 3.45%.

In the case of `O=[As](O)(c1cccs1)c1cccs1`, the potentiation was inactive: 5.65%.

For the compound `NS(=O)(=O)c1cccc(NC(=O)COC(=O)C(O)(c2ccccc2)c2ccccc2)c1`, the potentiation is inactive: -2.75%.

Turning to `O=P1(Nc2ccc(Br)cn2)COc2ccccc2OC1`, the potentiation is inactive: -6.25%.

On to `Nc1cccc([As](=O)(O)c2ccccc2)c1`, for which the potentiation was inactive: -2.25%.
